ChEMBL document CHEMBL4765413, “Discovery of novel anti-angiogenesis agents. Part 11: Development of PROTACs based on active molecules with potency of promoting vascular normalization” (Eur J Med Chem, 2020)

Tested on: EA.hy 926
Experiment: Antiangiogenic activity in human EA.hy 926 cells measured after 24 hrs by MTT assay
Assay type: functional, cell-based

SMILES | Activity
Cc1ncsc1-c1ccc(CNC(=O)[C@@H]2C[C@@H](O)CN2C(=O)[C@@H](NC(=O)CCCCCCCCCCC(=O)n2nc(N)c3c(-c4cccc(NC(=O)Nc5cccc(C(C)C)c5)c4)cccc32)C(C)(C)C)cc1 | Dose-dependent effect
Cc1ccc(F)c(NC(=O)Nc2ccc(-c3cccc4c3c(N)nn4C(=O)CCCCCCCCCCC(=O)N[C@H](C(=O)N3C[C@H](O)C[C@H]3C(=O)NCc3ccc(-c4scnc4C)cc3)C(C)(C)C)cc2)c1 | Dose-dependent effect
